From publication PMC7072329, “Discovery of Kynurenines Containing Oligopeptides as Potent Opioid Receptor Agonists” (Biomolecules, 2020)

Biological target: δ-opioid receptor (rat (endogenous in rat brain)) (UniProt P33533)
Assay: radioligand binding; displacement of [^3H]Ile^5,6Delt II from rat brain membrane homogenate by unlabelled ligand (10^-10 to 10^-5 M); 50 mM Tris-HCl pH 7.4, 35 °C, 45 min; non-specific binding with 10 μM naloxone; IC50 converted into Ki by Cheng-Prusoff

With Ile^5,6-deltorphine II (peptide) as the substance, how does the Ki read?
Its Ki is 8.85 nM.
